US7977370B2, “(Hetero)aryl cyclohexane derivatives” (dated 2011)
Like-named read-outs stand apart in the source and are kept apart here.

Sequences of proteins named here, by UniProt entry; tags and fusion partners are left off. A change or cut given only in a name is not applied to a line headed by its entry.
UniProt P35372, whole entry, looked up: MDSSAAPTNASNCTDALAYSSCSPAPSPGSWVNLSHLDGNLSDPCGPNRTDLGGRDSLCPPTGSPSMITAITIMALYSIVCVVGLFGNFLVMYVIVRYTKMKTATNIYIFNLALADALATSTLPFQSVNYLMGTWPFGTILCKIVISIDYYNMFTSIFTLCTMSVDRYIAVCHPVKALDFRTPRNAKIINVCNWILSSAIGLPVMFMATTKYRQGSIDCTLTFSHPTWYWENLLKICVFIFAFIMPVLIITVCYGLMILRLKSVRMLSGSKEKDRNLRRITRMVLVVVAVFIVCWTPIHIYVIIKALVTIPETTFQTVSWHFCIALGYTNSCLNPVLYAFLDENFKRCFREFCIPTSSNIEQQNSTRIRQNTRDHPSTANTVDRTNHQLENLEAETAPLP
UniProt P41146: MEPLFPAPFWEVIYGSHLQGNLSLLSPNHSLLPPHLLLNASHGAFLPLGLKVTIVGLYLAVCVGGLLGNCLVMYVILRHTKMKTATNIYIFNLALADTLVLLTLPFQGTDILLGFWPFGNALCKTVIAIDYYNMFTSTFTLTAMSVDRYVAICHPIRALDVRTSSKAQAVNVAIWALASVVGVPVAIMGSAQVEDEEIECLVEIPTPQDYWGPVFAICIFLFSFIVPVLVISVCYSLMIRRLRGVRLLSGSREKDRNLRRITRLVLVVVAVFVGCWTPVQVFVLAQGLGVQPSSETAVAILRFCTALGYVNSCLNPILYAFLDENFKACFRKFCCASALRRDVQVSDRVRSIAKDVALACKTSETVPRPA
UniProt P41145: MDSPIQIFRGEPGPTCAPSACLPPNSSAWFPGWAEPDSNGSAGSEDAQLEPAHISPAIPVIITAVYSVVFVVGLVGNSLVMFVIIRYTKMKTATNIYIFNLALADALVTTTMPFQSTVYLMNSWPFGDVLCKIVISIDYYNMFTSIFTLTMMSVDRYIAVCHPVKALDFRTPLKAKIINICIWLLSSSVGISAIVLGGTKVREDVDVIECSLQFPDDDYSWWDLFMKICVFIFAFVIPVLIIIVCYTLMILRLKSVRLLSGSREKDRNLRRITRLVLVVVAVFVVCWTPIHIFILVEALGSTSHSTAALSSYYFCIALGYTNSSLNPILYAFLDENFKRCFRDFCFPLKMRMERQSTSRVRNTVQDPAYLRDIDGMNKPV

Key:
[1] = target: human μ-opiate receptor (Homo sapiens, UniProt P35372); assay: μ-opiate receptor binding assay with [3H]-naloxone, CHO-K1 membrane preparation; conditions: for Ki: read-out: Ki (μ) Mean; for Ki (μ)/Ki (ORL1): ratio, comparison table Q=(hetero)aryl vs Q=H; for % Inhibition (μ) [1 μM]: test concentration 1 μM
[2] = target: ORL 1-receptor (Homo sapiens, UniProt P41146); assay: ORL 1 receptor binding assay with 3H-nociceptin/orphanin FQ, membranes of recombinant CHO-ORL 1 cells; conditions: for Ki: read-out: Ki (ORL1) Mean; for % Inhibition (ORL1) [1 μM]: test concentration 1 μM
[3] = target: kappa-opioid receptor (Homo sapiens, UniProt P41145); assay: kappa-opioid receptor binding assay with [3H]-Cl-977, CHO-K1 membrane preparation; conditions: for Ki: read-out: Ki (kappa) Mean, comparison table

Row | Molecule | Ki ([1]; Table 1) | Ki ([2]; Table 1) | % Inhibition (ORL1) [1 μM] [2] | % Inhibition (μ) [1 μM] [1] | other results
1 | CCCCC1(N(C)C)CCC(c2[nH]c3ccccc3c2C)(c2[nH]c3ccccc3c2CCN2C(=O)c3ccccc3C2=O)CC1 (stereo not drawn) | 12 nM | 29 nM | 87% | – | –
2 | CCCCC1(N(C)C)CCC(c2[nH]c3ccccc3c2CCC(=O)OC)(c2[nH]c3ccccc3c2CCC(=O)OC)CC1 | 3 nM | 11 nM | 93% | – | –
3 | Cc1c(C2(c3ccccc3)CCC(c3ccccc3)(N(C)C)CC2)[nH]c2ccccc12 (stereo not drawn) | 150 nM | 20 nM | – | – | Ki ([1]; comparison table): 150 nM; Ki [3]: 580 nM; Ki ([2]; comparison table): 20 nM
4 | Cc1c(C2(c3oc4ccccc4c3C)CCC(c3ccccc3)(N(C)C)CC2)oc2ccccc12.O=C(O)CC(O)(CC(=O)O)C(=O)O | – | – | 8% | 3% | Ki (μ)/Ki (ORL1) [1]: 2.8
5 | CCCCC1(N(C)C)CCC(c2[nH]c3ccccc3c2CCN2CCc3ccccc3C2)(c2[nH]c3ccccc3c2CCN2CCc3ccccc3C2)CC1.Cl | – | – | 99% | 99% | –
6 | Cc1c(C2(c3ccc4c(c3)OCO4)CCC(c3ccccc3)(N(C)C)CC2)[nH]c2ccccc12 (stereo not drawn) | 470 nM | 265 nM | 56% | – | –
7 | Cc1c(C2(c3[nH]c4ccccc4c3C)CCC(c3ccccc3)(N(C)C)CC2)[nH]c2ccccc12 | 60 nM | 43 nM | – | – | –
8 | CCCCC1(N(C)C)CCC(c2[nH]c3ccccc3c2CCc2ccncc2)(c2[nH]c3ccccc3c2CCc2ccncc2)CC1.O=C(O)CC(O)(CC(=O)O)C(=O)O | – | – | 95% | 100% | –
9 | CCCCC1(N(C)C)CCC(c2[nH]c3ccccc3c2C)(c2[nH]c3ccccc3c2C)CC1 | 22 nM | 23 nM | 88% | – | –
10 | CCCCC1(N(C)C)CCC(c2c(C)c3ccccc3n2C)(c2c(C)c3ccccc3n2C)CC1 | 81 nM | 450 nM | – | – | –
11 | Cc1c(C2(c3[nH]c4ccccc4c3C)CCC(c3ccccc3)(N(C)C)CC2)[nH]c2ccccc12.O=C(O)CC(O)(CC(=O)O)C(=O)O | – | – | 77% | 83.5% | –
12 | CCCCC1(N(C)C)CCC(c2[nH]c3ccc(C(F)(F)F)cc3c2C)(c2[nH]c3ccc(C(F)(F)F)cc3c2C)CC1 | 557 nM | 1330 nM | – | – | –
13 | CCCCC1(N(C)C)CCC(c2[nH]c3ccc(C(F)(F)F)cc3c2C)(c2[nH]c3ccc(C(F)(F)F)cc3c2C)CC1.O=C(O)CC(O)(CC(=O)O)C(=O)O | – | – | 9% | 60% | –
14 | CCCCC1(N(C)C)CCC(c2c(C)c3ccccc3n2C)(c2c(C)c3ccccc3n2C)CC1.Cl | – | – | 31% | – | –
15 | Cc1c(C2(c3cccs3)CCC(Cc3ccccc3)(N(C)C)CC2)[nH]c2ccccc12 (stereo not drawn) | – | – | 72% | – | –
16 | CCCCC1(N(C)C)CCC(c2[nH]c3ccccc3c2CCc2ccncc2)(c2[nH]c3ccccc3c2CCc2ccncc2)CC1 | 5 nM | 13 nM | – | – | –
17 | CCCCC1(N(C)C)CCC(c2[nH]c3ccccc3c2C)(c2c(C)c3ccccc3n2C)CC1.Cl (stereo not drawn) | – | – | 30% | – | –
18 | Cc1c(C2(c3[nH]c4ccccc4c3CCc3ccncc3)CCC(c3ccccc3)(N(C)C)CC2)[nH]c2ccccc12 (stereo not drawn) | 61 nM | 18 nM | 94% | 97% | –
19 | CCCCC1(N(C)C)CCC(c2[nH]c3ccccc3c2C)(c2[nH]c3ccccc3c2CCNC(=O)Nc2ccccc2)CC1 (stereo not drawn) | 4.3 nM | 13 nM | 98% | 100% | –

Row | Molecule | Ki ([1]; Table 1) | Ki ([2]; Table 1) | % Inhibition (ORL1) [1 μM] [2] | % Inhibition (μ) [1 μM] [1] | other results
20 | Cc1c(C2(c3oc4ccccc4c3C)CCC(c3ccccc3)(N(C)C)CC2)oc2ccccc12 | 780 nM | 283 nM | – | – | Ki ([1]; comparison table): 780 nM; Ki ([2]; comparison table): 283 nM
21 | CCCCC1(N(C)C)CCC(c2[nH]c3ccc(F)cc3c2C)(c2[nH]c3ccccc3c2CCNC(=O)Nc2ccccc2)CC1 (stereo not drawn) | 29 nM | 31 nM | 86% | 95% | –
22 | CN(C)C1(c2ccccc2)CCC(c2cccs2)(c2[nH]c3ccccc3c2CCc2ccncc2)CC1 (stereo not drawn) | 717 nM | 21 nM | 82% | 69% | –
23 | CN(C)C1(c2cccs2)CCC(c2[nH]c3ccccc3c2CCc2ccncc2)(c2[nH]c3ccccc3c2CCc2ccncc2)CC1 | 143 nM | 29 nM | 93% | 73% | Ki ([1]; comparison table): 143 nM; Ki [3]: 160 nM; Ki ([2]; comparison table): 29 nM
24 | CCCCC1(N2CCCC2)CCC(c2[nH]c3ccccc3c2CCc2ccncc2)(c2[nH]c3ccccc3c2CCc2ccncc2)CC1 | 93 nM | 1080 nM | 18% | 77% | –
25 | Cc1c(C2(c3ccccc3)CCC(c3ccccc3)(N(C)C)CC2)[nH]c2ccccc12.O=C(O)CC(O)(CC(=O)O)C(=O)O (stereo not drawn) | – | – | 82% | 76% | Ki (μ)/Ki (ORL1) [1]: 7.5; Ki (kappa)/Ki (ORL1) ([3]; ratio, comparison table Q=(hetero)aryl vs Q=H): 29
26 | CCCCC1(N(C)C)CCC(c2[nH]c3ccccc3c2C)(c2[nH]c3ccccc3c2CCNS(=O)(=O)C2CCCC2)CC1 (stereo not drawn) | – | – | 97% | – | –
27 | CN(C)C1(c2ccccc2)CCC(c2[nH]c3ccccc3c2CCc2ccncc2)(c2[nH]c3ccccc3c2CCc2ccncc2)CC1 | 28 nM | 88 nM | 71% | – | –
28 | CNC1(c2ccccc2)CCC(c2[nH]c3ccccc3c2CCc2ccncc2)(c2[nH]c3ccccc3c2CCc2ccncc2)CC1 | – | – | 70% | 80% | –
29 | CCCCC1(N(C)C)CCC(c2[nH]c3ccccc3c2CCNC(=O)Nc2ccccc2)(c2[nH]c3ccccc3c2CCNC(=O)Nc2ccccc2)CC1 | 11 nM | 12 nM | 97% | 100% | –
30 | CCCCC1(N(C)C)CCC(c2[nH]c3ccccc3c2C)(c2[nH]c3ccccc3c2CCN)CC1 (stereo not drawn) | 1 nM | 1 nM | 98% | – | –
31 | CCCCC1(N(C)C)CCC(c2[nH]c3ccccc3c2C)(c2c(C)c3ccccc3n2C)CC1 (stereo not drawn) | 165 nM | 610 nM | – | – | –
32 | (phenyl-2-(2-(4-butyl-4-(dimethylamino)-1-(5-fluoro-3-methyl-1H-indol-2-yl)cyclohexyl)-1H-indol-3-yl)ethyl carbamate | – | – | 83% | 90% | –
33 | COc1ccc(C2(c3[nH]c4ccccc4c3C)CCC(c3ccccc3)(N(C)C)CC2)cc1 (stereo not drawn) | 78 nM | 39 nM | 80% | 74% | –
34 | N,N-dimethyl-4-(3-methyl-1H-indol-2-yl)-1-phenyl-4-(3-(2-pyridin-4-yl)ethyl)-1H-indol-2-yl)cyclohexylamine | – | – | 61% | 73% | –
35 | 1-benzyl-N,N-dimethyl-4,4-bis(3-(2-(pyridin-4-yl)ethyl)-1H-indol-2-yl)cyclohexanamine; 2-hydroxypropane-1,2,3-tricarboxylate (2:3) | 10 nM | 730 nM | 19% | 96% | –
36 | COc1cccc(C2(c3[nH]c4ccccc4c3C)CCC(c3ccccc3)(N(C)C)CC2)c1 (stereo not drawn) | – | – | 82% | – | –
37 | Cc1c(C2(c3cccs3)CCC(c3cccc(F)c3)(N(C)C)CC2)[nH]c2ccccc12 (stereo not drawn) | – | – | 86% | – | –
38 | 4-(3-(2-aminoethyl)-1H-indol-2-yl)-1-butyl-4-(5-fluoro-3-methyl-1H-indol-2-yl)-N,N-cyclohexylamine | – | – | 95% | 98% | –
